Measured values taken from ChEMBL document CHEMBL5325425, “Design, synthesis and biological evaluation of pyrrolopyrimidine derivatives as novel and selective positive modulator of the small conductance Ca2+-activated K+ channels” (Eur J Med Chem, 2023).
Calls of active or inactive are those of the source. The calls are words filed in the database; no cut-off is given here.

Protein sequences, listed by entry. Tags and fused reporters are not part of them.
UniProt Q9H2S1, whole entry: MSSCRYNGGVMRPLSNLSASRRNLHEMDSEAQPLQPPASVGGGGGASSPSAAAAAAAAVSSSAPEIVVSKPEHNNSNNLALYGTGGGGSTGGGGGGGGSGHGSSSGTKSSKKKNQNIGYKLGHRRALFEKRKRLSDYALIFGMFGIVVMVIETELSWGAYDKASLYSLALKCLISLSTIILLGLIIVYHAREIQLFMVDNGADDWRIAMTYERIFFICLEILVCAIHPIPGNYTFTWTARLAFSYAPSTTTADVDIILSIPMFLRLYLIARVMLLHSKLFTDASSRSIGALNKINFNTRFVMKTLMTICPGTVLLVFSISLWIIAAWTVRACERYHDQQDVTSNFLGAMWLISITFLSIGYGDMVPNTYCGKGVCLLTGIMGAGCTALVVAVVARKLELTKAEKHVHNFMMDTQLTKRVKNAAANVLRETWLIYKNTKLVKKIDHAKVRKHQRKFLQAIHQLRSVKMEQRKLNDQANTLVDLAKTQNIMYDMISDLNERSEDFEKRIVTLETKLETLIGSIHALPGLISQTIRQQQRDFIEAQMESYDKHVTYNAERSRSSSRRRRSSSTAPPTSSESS
UniProt O15554, whole entry: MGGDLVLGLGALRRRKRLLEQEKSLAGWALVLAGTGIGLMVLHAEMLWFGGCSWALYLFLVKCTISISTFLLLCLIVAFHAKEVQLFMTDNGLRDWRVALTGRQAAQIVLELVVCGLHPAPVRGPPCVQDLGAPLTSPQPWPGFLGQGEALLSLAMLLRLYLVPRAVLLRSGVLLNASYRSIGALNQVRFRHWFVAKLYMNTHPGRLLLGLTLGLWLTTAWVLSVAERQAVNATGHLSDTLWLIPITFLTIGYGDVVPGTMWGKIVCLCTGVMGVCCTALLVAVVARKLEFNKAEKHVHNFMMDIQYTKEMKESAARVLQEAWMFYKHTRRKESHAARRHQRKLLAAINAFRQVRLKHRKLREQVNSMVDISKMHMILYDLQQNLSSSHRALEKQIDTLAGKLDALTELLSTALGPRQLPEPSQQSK
UniProt Q92952, whole entry: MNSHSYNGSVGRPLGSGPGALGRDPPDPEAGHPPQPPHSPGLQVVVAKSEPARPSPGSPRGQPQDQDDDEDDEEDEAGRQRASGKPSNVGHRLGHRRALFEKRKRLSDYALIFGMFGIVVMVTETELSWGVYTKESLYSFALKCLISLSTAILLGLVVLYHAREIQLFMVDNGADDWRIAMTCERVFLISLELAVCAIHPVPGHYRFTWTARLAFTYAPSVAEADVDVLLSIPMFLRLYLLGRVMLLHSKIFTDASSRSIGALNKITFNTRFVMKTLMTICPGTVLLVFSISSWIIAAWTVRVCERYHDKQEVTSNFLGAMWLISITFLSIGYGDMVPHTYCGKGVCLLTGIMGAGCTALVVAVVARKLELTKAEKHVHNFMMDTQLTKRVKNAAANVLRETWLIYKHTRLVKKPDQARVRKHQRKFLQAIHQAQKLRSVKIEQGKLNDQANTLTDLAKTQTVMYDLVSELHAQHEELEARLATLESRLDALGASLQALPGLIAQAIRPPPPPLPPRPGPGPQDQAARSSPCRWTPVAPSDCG

Assays:
Assay type in all cases: cell-based
[1] = biological target: Small conductance calcium-activated potassium channel protein 2 (Homo sapiens, UniProt Q9H2S1); test: Positive modulation of SK2 in HEK293 cells in presence of Ca2+ by patch-clamp method relative to control; conditions: filed as activator
[2] = biological target: Intermediate conductance calcium-activated potassium channel protein 4 (Homo sapiens) (UniProt O15554); test: Activation of IK (unknown origin) expressed in HEK293 cells coexpressing CaM/GFP at 100 uM in presence of Ca2+ by electrophysiological method
[3] = biological target: T1, Small conductance calcium-activated potassium channel protein 1 (Homo sapiens, UniProt Q92952); test: Activation of SK1 (unknown origin) expressed in HEK293 cells coexpressing CaM/GFP at 100 uM in presence of Ca2+ by electrophysiological method
[4] = biological target: Intermediate conductance calcium-activated potassium channel protein 4 (Homo sapiens) (UniProt O15554); test: Activation of IK (unknown origin) expressed in HEK293 cells coexpressing CaM/GFP in presence of Ca2+ by electrophysiological method relative to control
[5] = biological target: T1, Small conductance calcium-activated potassium channel protein 1; test: Activation of SK1 (unknown origin) expressed in HEK293 cells coexpressing CaM/GFP in presence of Ca2+ by electrophysiological method relative to control

With `Cc1cc(C)n(-c2nc(Nc3ccc(Cl)cc3)c3ncn(C)c3n2)n1` as the molecule, how does the Efficacy [1] read?
The Efficacy was 90%.

Which results are given for `Cc1ccn(-c2nc(Nc3ccc(F)cc3)c3ccn(C)c3n2)n1`?
Activity [2]: inactive; Activity [3]: inactive; Efficacy [4]: 31.9%; Efficacy [5]: 9.28%
